Laboratory results taken from US8501936B2 (priority 2009, dated 2013).

Chains of the proteins cited; added tags and fusions are not shown.
UniProt Q05397, whole entry: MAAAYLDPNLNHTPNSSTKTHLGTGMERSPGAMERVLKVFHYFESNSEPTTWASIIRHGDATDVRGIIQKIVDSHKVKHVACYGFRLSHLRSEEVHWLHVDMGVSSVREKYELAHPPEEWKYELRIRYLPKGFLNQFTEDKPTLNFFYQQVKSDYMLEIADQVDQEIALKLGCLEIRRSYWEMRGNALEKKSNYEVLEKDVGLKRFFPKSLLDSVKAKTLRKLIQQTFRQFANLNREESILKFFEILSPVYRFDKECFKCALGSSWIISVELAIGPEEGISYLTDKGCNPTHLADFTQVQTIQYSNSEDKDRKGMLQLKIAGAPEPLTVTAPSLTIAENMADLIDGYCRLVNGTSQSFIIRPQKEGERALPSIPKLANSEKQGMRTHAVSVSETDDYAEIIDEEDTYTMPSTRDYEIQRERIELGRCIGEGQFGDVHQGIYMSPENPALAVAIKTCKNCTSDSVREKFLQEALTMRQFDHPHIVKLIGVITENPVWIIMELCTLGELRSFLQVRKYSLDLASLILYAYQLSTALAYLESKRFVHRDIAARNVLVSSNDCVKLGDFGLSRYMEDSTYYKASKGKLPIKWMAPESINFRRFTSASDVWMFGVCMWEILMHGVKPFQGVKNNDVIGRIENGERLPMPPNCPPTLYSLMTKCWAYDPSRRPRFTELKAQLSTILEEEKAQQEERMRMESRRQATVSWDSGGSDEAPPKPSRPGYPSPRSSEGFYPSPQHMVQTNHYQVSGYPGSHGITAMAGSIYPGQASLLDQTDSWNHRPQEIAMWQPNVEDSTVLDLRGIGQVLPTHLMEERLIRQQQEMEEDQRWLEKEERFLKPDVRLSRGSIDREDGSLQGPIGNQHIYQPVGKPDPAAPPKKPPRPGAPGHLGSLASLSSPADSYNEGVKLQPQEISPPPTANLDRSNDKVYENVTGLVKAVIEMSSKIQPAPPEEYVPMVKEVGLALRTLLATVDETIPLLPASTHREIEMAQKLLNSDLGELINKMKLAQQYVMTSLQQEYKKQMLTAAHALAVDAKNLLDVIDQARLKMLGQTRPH

Biological target: human FAK (Homo sapiens (Human), UniProt Q05397)
Conditions: read-out: FAK IC50

SMILES | IC50 [µM]
CN1CCN(c2ccc(Nc3nc4c(-c5ccc(S(C)(=O)=O)cc5)cc(C(F)(F)F)cn4n3)cc2)CC1 [Example 103, [8-(4-Methanesulfonyl-phenyl)-6-trifluoromethyl-[1,2,4]triazolo[1,5-a]pyridin-2-yl]-[4-(4-methyl-piperazin-1-yl)-phenyl]-amine] | 10
Cc1nn(C)c(C)c1Nc1nc2c(-c3ccc(S(C)(=O)=O)cc3)cccn2n1 [Example 210, [8-(4-Methanesulfonyl-phenyl)-[1,2,4]triazolo[1,5-a]pyridin-2-yl]-(1,3,5-trimethyl-1H-pyrazol-4-yl)-amine] | 10
COc1ccc(C(F)(F)F)cc1-c1cccn2nc(Nc3cccc(C4CCN(C(=O)OC(C)(C)C)CC4)c3)nc12 [Example 256] | 10
CC(=O)Nc1ccc(Sc2cccn3nc(Nc4ccc(C5CCN(C(=O)OC(C)(C)C)CC5)cc4)nc23)cc1 [Example 281, 4-{4-[8-(4-Acetylamino-phenylsulfanyl)-[1,2,4]triazolo[1,5-a]pyridine-2-ylamino]-phenyl}-piperidine-1-carboxylic acid tert-butyl ester] | 10
c1cncc(CNc2cccn3nc(NCCN4CCOCC4)nc23)c1 [Example 101, N(2)-(2-Morpholin-4-yl-ethyl)-N(8)-pyridin-3-ylmethyl-[1,2,4]triazolo[1,5-a]pyridine-2,8-diamine] | 10
